# From paper PMC4322223, “Biochemical and structural characterization of a thermostable β-glucosidase from Halothermothrix orenii for galacto-oligosaccharide synthesis” (Applied Microbiology and Biotechnology, 2014)
# Chains of the proteins cited; added tags and fusions are not shown.
# UniProt B8CYA8, entry or part of it: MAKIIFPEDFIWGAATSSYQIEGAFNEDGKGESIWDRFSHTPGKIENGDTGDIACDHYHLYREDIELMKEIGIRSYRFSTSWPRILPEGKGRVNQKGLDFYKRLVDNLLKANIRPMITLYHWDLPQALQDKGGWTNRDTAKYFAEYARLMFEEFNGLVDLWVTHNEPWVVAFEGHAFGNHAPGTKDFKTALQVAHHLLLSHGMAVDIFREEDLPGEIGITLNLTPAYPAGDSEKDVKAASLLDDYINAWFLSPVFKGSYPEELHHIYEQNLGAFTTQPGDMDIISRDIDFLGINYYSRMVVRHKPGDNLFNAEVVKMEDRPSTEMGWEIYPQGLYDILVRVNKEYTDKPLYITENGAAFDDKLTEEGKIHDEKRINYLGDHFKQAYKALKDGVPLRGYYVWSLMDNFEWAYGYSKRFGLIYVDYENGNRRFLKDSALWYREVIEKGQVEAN
# Target: HoBGLA (Halothermothrix orenii, UniProt B8CYA8)
# Set-up: gene Hore_15280
compound,measurement,value
OC[C@H]1OC(O)[C@H](F)[C@@H](O)[C@@H]1O (stereo partly drawn) [2-deoxy-2-fluoro-D-glucose],"X-ray crystal structure, 2.0 Å, soaked",the catalytic nucleophile appears to be labeled by 2FGlc
